The assay deals with T1, PepNuoC (Escherichia coli, UniProt P33599).
T1 chain: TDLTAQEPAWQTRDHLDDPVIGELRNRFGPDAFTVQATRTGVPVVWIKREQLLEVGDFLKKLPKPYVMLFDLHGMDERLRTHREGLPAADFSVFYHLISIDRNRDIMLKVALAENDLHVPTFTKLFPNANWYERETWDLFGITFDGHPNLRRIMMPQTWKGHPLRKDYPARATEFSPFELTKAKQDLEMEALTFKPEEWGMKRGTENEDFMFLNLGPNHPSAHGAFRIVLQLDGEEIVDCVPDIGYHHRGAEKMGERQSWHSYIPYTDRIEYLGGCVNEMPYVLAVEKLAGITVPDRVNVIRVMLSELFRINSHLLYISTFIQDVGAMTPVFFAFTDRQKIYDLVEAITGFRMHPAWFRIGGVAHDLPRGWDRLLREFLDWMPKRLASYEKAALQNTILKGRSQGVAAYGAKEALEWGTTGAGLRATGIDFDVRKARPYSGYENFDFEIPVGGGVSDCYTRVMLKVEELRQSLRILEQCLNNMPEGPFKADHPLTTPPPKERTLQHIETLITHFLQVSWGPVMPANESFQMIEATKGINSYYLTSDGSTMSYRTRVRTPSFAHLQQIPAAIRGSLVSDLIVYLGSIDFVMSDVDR
Description: SPR. For orientation: SPR reads the build-up and loss of mass on a sensor chip optically.

B1: Hsp33 (protein)
chain: MPQHDQLHRYLFENFAVRGELVTVSETLQQILENHDYPQPVKNVLAELLVATSLLTATLKFDGDITVQLQGDGPMNLAVINGNNNQQMRGVARVQGEIPENADLKTLVGNGYVVITITPSEGERYQGVVGLEGDTLAACLEDYFMRSEQLPTRLFIRTGDVDGKPAAGGMLLQVMPAQNAQQDDFDHLATLTETIKTEELLTLPANEVLWRLYHEEEVTVYDPQDVEFKCTCSRERCADALKTLPDEEVDSILAEDGEIDMHCDYCGNHYLFNAMDIAEIRNNASPADPQVH
modifications: oxidized Hsp33
B1 returned a Kd of 35 nM. In other words, the double-digit nanomolar range.

As a reminder, the Kd is the constant that tells how readily two partners part at equilibrium. Read a high Kd as weaker binding.
